Usually pKi stands for the negative decadic logarithm of the Ki, by convention in mol/L. High values mean a low Ki, low ones a high Ki.

Chains of the proteins cited; added tags and fusions are not shown.
UniProt P21917, whole entry: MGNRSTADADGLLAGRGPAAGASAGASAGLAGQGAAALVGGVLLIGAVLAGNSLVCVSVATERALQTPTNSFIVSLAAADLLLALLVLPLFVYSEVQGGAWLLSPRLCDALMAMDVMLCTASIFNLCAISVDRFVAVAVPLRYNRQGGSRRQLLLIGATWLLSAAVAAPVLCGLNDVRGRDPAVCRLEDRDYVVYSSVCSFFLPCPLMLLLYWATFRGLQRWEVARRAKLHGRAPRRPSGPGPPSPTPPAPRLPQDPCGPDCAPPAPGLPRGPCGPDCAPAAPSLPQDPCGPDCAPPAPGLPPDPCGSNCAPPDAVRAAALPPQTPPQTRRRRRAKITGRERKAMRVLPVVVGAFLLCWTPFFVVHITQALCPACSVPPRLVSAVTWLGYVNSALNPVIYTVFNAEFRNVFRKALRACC

The test concerns the target D(4) dopamine receptor (Homo sapiens, UniProt P21917).

pKi: −log10 of the molar value. “And” between values parts separate entries of the source, which are not always exact repeats. Identical values can stand only once.

Turning to `CCN1CCCC1CNC(=O)c1cc(S(N)(=O)=O)ccc1OC` (stereo unspecified) [N-[(1-ethylpyrrolidin-2-yl)methyl]-2-methoxy-5-sulfamoylbenzamide], the pKi was 6.10 and 5.88.

The record behind these values is BindingDB's records for PubMed 9262370 (Neurogen, 1997).
